The source of these data is patent US9744150B2, “Suspension containing micronized benzoyl peroxide” (Dow Pharmaceutical Sciences Inc., priority 2009, dated 2017).

The series can be described thus: surface tension by Du Noüy ring method, Krüss K20 EasyDyne tensiometer. In kind it is physicochemical. The following applies: room temperature. The procedure: As used herein, the term “surface tension” refers to the force required to increase the unit area of a surface of a liquid or of an interface between two liquids or between a liquid and a gas, generally stated in units of dynes/cm. Surface tensions described herein are measured by the Du Noüy ring method utilizing an EasyDyne tensiometer model K20 marketed by Krüss USA, Matthews, N.C.
Surface tension of a fluid containing water was determined prior to and after mixing with various concentrations of various water soluble organic solvents in water. The water soluble organic solvents tested were: propylene glycol (Spectrum Chemicals, Gardena, Calif.), ethanol (Alfa Aesar, Ward Hill, Mass.), hexylene glycol (Ruger Chemicals, Linden, N.J.), ethoxydiglycol (Gattefossé USA, Paramus, N.J.), polyethylene glycol 400 (PEG 400) (Croda USA, Edison, N.J.), dimethyl isosorbide (DMI) (Croda, USA, Edison, N.J.) and glycerin (Spectrum Chemicals, Gardena, Calif.) as well as polyethylene glycol 200 NF (PEG 200) (Alfa Aesar, Ward Hill, Mass.), propylene carbonate (Spectrum Chemicals, Gardena Calif.), isopropyl alcohol (Spectrum Chemicals, Gardena Calif.), 1,3-propanediol (Spectrum Chemicals, Gardena Calif.) and polypropylene glycol (PPG-9) (Spectrum Chemicals, Gardena Calif.). The study was performed at room temperature utilizing a Kruss Surface Tensiometer, Model K20 EasyDyne (Kruss USA, Matthews, N.C.) and the results are shown in Table 4. Values for surface tension are in dynes/cm.

For the substance hexylene glycol [Hexylene Glycol NF], the Surface tension was determined as 60.1 dynes/cm (1.0 % w/w solvent in water); 54.2 dynes/cm (2.5 % w/w solvent in water); 48.9 dynes/cm (5 % w/w solvent in water); 45.5 dynes/cm (7.5 % w/w solvent in water); 43.0 dynes/cm (10 % w/w solvent in water); 41.1 dynes/cm (12.5 % w/w solvent in water). Also, the Surface tension is given as 39.4 dynes/cm (15.0 % w/w solvent in water); 37.8 dynes/cm (17.5 % w/w solvent in water); 36.5 dynes/cm (20 % w/w solvent in water); 35.5 dynes/cm (22.5 % w/w solvent in water); 34.7 dynes/cm (25 % w/w solvent in water); 28.6 dynes/cm (100 % w/w solvent).
